Reference: patent publication US20230115515A1, “PYRAZOLYLPROPANAMIDE COMPOUNDS AND USES THEREOF FOR TREATMENT OF PROSTATE CANCER” (priority 2020, published 2023)

Protein sequences, listed by entry. Tags and fused reporters are not part of them. Lines headed by an entry give the natural chain unless they say otherwise; changes in a name come on top.
UniProt P10275: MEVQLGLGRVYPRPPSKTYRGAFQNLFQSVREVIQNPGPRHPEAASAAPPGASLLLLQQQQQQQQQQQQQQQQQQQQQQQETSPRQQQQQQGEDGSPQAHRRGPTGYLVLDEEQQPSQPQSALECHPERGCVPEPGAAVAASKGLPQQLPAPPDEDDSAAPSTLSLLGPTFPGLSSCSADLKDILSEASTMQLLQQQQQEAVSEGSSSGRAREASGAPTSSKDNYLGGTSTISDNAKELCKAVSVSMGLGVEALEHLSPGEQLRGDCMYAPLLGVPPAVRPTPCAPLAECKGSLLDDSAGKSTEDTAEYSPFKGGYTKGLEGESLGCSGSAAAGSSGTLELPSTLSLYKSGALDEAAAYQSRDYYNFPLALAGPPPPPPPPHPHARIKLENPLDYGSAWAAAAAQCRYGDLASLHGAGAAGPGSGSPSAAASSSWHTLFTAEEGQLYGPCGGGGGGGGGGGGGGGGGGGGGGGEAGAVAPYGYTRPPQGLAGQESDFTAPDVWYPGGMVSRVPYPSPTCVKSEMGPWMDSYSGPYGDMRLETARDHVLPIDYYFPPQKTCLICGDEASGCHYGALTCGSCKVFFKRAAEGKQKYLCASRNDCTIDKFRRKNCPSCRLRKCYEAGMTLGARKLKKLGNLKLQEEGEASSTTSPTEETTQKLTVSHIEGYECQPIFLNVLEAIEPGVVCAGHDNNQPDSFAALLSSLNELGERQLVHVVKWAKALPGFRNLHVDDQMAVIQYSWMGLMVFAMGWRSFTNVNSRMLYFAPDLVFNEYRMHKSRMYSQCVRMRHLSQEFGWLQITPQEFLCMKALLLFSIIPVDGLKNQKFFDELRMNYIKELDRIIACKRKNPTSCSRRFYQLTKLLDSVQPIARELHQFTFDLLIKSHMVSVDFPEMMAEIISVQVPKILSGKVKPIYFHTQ

Biological target: full-length wtAR (Homo sapiens, UniProt P10275)

Compound: C[C@](O)(CNC(=O)c1cn[nH]c1)C(=O)Nc1ccc(C#N)c(C(F)(F)F)c1 [Compound 29f, (S)—N-(3-((4-Cyano-3-(trifluoromethyl)phenyl)amino)-2-hydroxy-2-methyl-3-oxopropyl)-1H-pyrazole-4-carboxamide]
- Transactivation IC50: agonist
